# According to patent US20230172200A1, “A LIQUID ANTI-PATHOGENIC AGRICULTURAL COMPOSITION” (ORO AGRI INC., priority 2019, published 2023):
# Experiment: Paraffin wax solubility test
# Assay type: physicochemical
# Conditions: 2.0 g paraffin wax in 98 g solvent, 25 °C, stirring at 350 rpm
# Source text: A method to evaluate the capability of a solvent to dissolve paraffin wax was developed and it helps to understand how will be performed certain solvent when applied to an epicuticular surface of a plant or an insect.
smiles,measurement,value
CCCCCCCCCCCCCC(=O)OC(C)C [isopropyl myristate],Dissolution Time,627 min
